Measured values published in article PMC9686514, “Design of Antimicrobial Peptides with Cell-Selective Activity and Membrane-Acting Mechanism against Drug-Resistant Bacteria” (Antibiotics, 2022).

Assays:
Type in all cases: cell-based
Details in all cases: 5 × 10^5 cfu/mL, 37 °C, 24 h
[1] = tested on: Staphylococcus aureus (ATCC 25923)
Description: (§1) Pseudomonas aeruginosa (ATCC 15692), Escherichia coli (ATCC 25922), and Staphylococcus aureus (ATCC 25923) were purchased from the American Type Culture Collection. Listeria monocytogens (KCTC 3710) and Bacillus subtilis (KCTC 1998) were from the Korean Collection for Type Cultures. Drug-resistant S. aureus (DRSa-001~005) and P. aeruginosa (DRPa-001~005) were collected from Paik Hospital of Inje University in Busan, South Korea. Pre-cultured bacteria grown to mid-log phase were suspended in 10 mM sodium phosphate (SP, pH 7.2) or phosphate-buffered saline (PBS, pH 7.2) with 10% culture media. Bacterial suspensions were added to each peptide dilute (final 5 × 10^5 colony-forming units (cfu)/mL), after which the plates were incubated at 37 °C for 24 h. The turbidity of each well was measured at the absorbance at 600 nm and the morphology of bacterial growth was observed under light microscopy. MICs (Minimum inhibitory concentrations) were defined as the lowest concentration of peptide that expresses the complete inhibition of bacterial growth.

[2] = tested on: Bacillus subtilis (KCTC 1998)
Description: as §1

[3] = tested on: Pseudomonas aeruginosa (ATCC 15692)
Description: as §1

[4] = tested on: Escherichia coli (ATCC 25922)
Description: as §1

[5] = 10 mM sodium phosphate (pH 7.2) with 10% culture media
[6] = phosphate-buffered saline (PBS, pH 7.2) with 10% culture media

## CC[C@H](C)[C@H](NC(=O)CN)C(=O)NCC(=O)N[C@@H](C)C(=O)N[C@H](C(=O)N[C@@H](CC(C)C)C(=O)N[C@@H](CCCCN)C(=O)N[C@H](C(=O)N[C@@H](CC(C)C)C(=O)N[C@H](C(=O)N[C@H](C(=O)NCC(=O)N[C@@H](CC(C)C)C(=O)N1CCC[C@H]1C(=O)N[C@@H](C)C(=O)N[C@@H](CC(C)C)C(=O)N[C@H](C(=O)N[C@@H](CO)C(=O)N[C@@H](Cc1c[nH]c2ccccc12)C(=O)N[C@H](C(=O)N[C@@H](CCCCN)C(=O)N[C@@H](CCCNC(=N)N)C(=O)N[C@@H](CCCCN)C(=O)N[C@@H](CCCNC(=N)N)C(=O)N[C@@H](CCC(N)=O)C(=O)N[C@@H](CCC(N)=O)C(N)=O)[C@@H](C)CC)[C@@H](C)CC)[C@@H](C)O)[C@@H](C)O)C(C)C)C(C)C [Melittin, reference compound]
[1]; [5]
  MIC, Sa: 2(2) μM
[1]; [6]
  MIC, Sa (numbers in parentheses): 2(2) μM
[2]; [5]
  MIC, Bs: 2(2) μM
[2]; [6]
  MIC, Bs (numbers in parentheses): 2(2) μM
[3]; [5]
  MIC, Pa: 2 µM (≈ 5.69 µg/mL)
[3]; [6]
  MIC, Pa (numbers in parentheses): 16 µM (≈ 45.5 µg/mL)
[4]; [5]
  MIC, Ec: 2(2) μM
[4]; [6]
  MIC, Ec (numbers in parentheses): 2(2) μM

Values after ≈ are worked out from the molar mass of the structure shown.
